Several values for one entry are separate records, joined by “and”; a condition that tells them apart may be missing. Identical values can stand only once. Like-named read-outs stand apart in the source and are kept apart here.
Legend:
[1] = molecular target: T1, human POR (Homo sapiens, UniProt A0A9L9PY49); test: cytochrome c reduction, absorbance […] nm; assay type: biochemical; conditions: apparent activation; 40 μM cytochrome c, 100 μM NADPH, pH 7.5, proteoliposomes
T1 construct: full-length wild type in pET22b, expressed in E. coli BL21(DE3); bacterial membranes reconstituted in DLPC/DLPG liposomes without further purification, or used as microsomes
T1 sequence (A0A9L9PY49 1-680): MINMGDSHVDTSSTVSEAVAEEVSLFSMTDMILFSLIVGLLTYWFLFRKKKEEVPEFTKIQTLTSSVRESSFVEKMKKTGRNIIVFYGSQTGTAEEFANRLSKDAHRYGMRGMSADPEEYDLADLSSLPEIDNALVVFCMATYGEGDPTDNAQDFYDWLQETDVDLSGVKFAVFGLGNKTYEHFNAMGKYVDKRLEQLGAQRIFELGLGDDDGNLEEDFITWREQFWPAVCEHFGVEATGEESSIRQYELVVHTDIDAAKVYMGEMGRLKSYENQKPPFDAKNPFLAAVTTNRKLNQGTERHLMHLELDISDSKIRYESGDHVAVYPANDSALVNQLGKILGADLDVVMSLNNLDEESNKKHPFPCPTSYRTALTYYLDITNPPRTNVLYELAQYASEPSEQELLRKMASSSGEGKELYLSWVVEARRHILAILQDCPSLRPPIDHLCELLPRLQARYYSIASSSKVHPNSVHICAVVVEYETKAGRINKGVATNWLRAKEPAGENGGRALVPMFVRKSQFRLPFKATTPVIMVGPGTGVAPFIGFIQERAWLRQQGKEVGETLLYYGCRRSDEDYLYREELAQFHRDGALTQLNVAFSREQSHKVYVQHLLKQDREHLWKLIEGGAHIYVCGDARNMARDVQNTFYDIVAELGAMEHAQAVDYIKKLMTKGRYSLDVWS

Sequences of proteins named here, by UniProt entry; tags and fusion partners are left off. A change or cut given only in a name is not applied to a line headed by its entry.
UniProt C5YJG8: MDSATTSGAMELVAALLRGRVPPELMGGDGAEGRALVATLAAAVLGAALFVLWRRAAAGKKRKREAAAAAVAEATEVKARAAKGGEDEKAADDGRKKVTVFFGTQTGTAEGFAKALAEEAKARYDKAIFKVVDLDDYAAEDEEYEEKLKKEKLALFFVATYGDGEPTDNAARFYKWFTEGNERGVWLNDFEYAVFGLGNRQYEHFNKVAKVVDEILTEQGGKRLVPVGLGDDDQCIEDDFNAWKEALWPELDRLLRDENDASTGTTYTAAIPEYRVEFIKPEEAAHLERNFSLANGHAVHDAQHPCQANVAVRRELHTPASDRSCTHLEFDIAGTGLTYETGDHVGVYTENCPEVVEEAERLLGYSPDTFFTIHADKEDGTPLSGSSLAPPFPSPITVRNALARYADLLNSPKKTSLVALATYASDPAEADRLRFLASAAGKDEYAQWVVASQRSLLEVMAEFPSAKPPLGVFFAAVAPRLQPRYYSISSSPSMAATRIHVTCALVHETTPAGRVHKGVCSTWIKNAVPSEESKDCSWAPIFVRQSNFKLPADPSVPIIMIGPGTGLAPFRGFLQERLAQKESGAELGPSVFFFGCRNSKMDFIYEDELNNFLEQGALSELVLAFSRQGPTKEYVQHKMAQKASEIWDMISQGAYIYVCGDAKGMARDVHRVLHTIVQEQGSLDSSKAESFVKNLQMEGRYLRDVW

[2] = molecular target: T2, SbPOR2b (Sorghum bicolor, UniProt C5YJG8); parameters: POR proteoliposome reduction of cytochrome c, MTT (absorbance) or resazurin (fluorescence), normalized to DMSO control
T2 construct: gene CPR; full-length, expressed in E. coli NiCo21(DE3) from pET52b, purified on 2',5'-ADP Sepharose and Q-sepharose, in DLPC/DLPG proteoliposomes; mutant in lipid nanodiscs
Experimental: (§1) Using Cytc, MTT or RS as electron acceptors the change in absorbance (550 nm for Cytc and 610 nm for MTT) or emission (570 nm excitation, 585 nm emission for RS) was monitored as a function of time. Cytc and RS concentrations were both close to KM of the given electron acceptor, while MTT and NADPH were in excess amounts. Concentrations were 40 μM Cytc, 10 μM RS, 500 μM MTT and 100 μM NADPH unless otherwise stated. POR activity was extracted from the slope of the linear region of each trace. Michaelis–Menten kinetics and IC50 curves were performed under identical conditions using relevant substrate and ligand concentrations. All measurements were repeated at least three times and subsequently normalized to DMSO control measurements. […] Fluorescence intensities of resorufin in the presence of rifampicin were corrected according to a linear calibration curve (see Supplementary Fig. 7). Given that point-mutations in human POR can lead to altered specificity towards CYP isoforms[4],[19], we tested whether small-molecule ligands can bias the specificity of human POR to reduce diverse electron acceptors. […] (MTT)[32] (Fig. 2A). Each of the assays relies on spectral changes of the electron acceptor upon reduction by POR and thus directly reports on POR activity towards reducing the specific redox partner (see Supplementary Methods for details). Being comparative these assays exclude artefacts that may originate from potential FMN loss. […] POR plays an omnipotent role as an electron donor to microsomal CYPs in all eukaryotes and serves as a key metabolic hub in plants as well as humans. To test whether the effect of small-molecule ligand binding to POR is an omnipotent phenomenon underlying the regulation of POR in organisms from different kingdoms, we performed binding assays based on intrinsic fluorescence quenching and dose-response experiments on POR2b from the crop plant Sorghum bicolor (SbPOR2b) in proteoliposomes (Fig. 3A, B, Supplementary Fig. 6 and Supplementary Table 3).

[3] = molecular target: T1, human POR; parameters: POR proteoliposome reduction of cytochrome c, MTT (absorbance) or resazurin (fluorescence), normalized to DMSO control
Experimental: as §1

O=P1(N(CCCl)CCCl)NCCCO1 (centres unmarked) [cyclophosphamide]
% of control at 100 μM [1]: 119 ± 14% | % of control remaining ([2]; 10 µM): 100.1 and 98.1 | % of control remaining ([2]; 100 µM): 103.9 and 108.3 | % of control remaining ([3]; 10 µM): 100.3 and 115 | % of control remaining ([3]; 100 µM): 99.6 and 103.6

— paper PMC8050233, “Biased cytochrome P450-mediated metabolism via small-molecule ligands binding P450 oxidoreductase” (Nature Communications, 2021)
